These results are taken from ChEMBL document CHEMBL1141921, “Phthalazinones. Part 1: The design and synthesis of a novel series of potent inhibitors of poly(ADP-ribose)polymerase” (Bioorg Med Chem Lett, 2005).

Protein sequences, listed by entry. Tags and fused reporters are not part of them.
UniProt P09874, whole entry: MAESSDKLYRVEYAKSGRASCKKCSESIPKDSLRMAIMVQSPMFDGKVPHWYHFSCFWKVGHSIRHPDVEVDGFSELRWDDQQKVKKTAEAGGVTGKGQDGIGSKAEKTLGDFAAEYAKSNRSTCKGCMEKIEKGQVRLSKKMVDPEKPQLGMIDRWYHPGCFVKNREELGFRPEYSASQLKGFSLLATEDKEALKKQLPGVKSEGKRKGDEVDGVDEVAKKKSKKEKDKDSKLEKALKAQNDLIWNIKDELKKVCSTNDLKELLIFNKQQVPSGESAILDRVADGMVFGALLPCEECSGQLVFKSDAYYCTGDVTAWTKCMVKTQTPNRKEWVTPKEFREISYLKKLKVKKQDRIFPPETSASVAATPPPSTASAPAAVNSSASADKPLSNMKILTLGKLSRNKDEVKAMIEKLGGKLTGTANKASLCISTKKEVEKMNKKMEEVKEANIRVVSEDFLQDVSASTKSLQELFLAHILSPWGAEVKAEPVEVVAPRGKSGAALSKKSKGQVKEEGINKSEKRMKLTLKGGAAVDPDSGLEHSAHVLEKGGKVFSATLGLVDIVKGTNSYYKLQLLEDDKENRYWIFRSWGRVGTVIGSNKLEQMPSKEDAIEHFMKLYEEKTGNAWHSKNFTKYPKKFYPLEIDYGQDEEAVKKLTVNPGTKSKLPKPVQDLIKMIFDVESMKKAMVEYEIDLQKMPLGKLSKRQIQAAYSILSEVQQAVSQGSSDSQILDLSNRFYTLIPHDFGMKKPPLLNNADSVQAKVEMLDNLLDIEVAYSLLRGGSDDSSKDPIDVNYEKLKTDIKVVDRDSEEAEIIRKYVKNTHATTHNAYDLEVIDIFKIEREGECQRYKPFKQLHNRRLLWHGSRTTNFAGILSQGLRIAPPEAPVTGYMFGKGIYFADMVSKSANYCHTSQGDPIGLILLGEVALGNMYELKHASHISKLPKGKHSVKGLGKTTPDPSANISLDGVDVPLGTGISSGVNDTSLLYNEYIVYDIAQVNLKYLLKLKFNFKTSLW

Each structure is given as a SMILES string.

What is called IC50 is the concentration that gives 50% inhibition. High values mean a need for much substance, low ones inhibition by little substance.

The target of this experiment is Poly [ADP-ribose] polymerase 1 (Homo sapiens, UniProt P09874).

As to `CN1CC(=O)N(c2cc(Cc3n[nH]c(=O)c4ccccc34)ccc2F)C(=O)C1`, inhibition was half-maximal at 9.5 nM (IC50). Then `CC1(C)CC(=O)N(c2cc(Cc3n[nH]c(=O)c4ccccc34)ccc2F)C1=O`, with 9.8 nM; and `O=C1CCCC(=O)N1c1cc(Cc2n[nH]c(=O)c3ccccc23)ccc1F`, with 4.1 nM.
